Tests used:
[1] = tested on: BCAR4 gene fusion (L-B fusion) expressing cells; assay: Cell growth (MTT) assay with Herceptin (FIG. 43); assay type: cell-based; details: L-B fusion expression, preliminary data
Source text: FIG. 43 is a graph showing BCAR4-expressing cells respond to Herceptin (trastuzumab) in accordance with the present disclosure.
BCAR4-expressing cells respond to Herceptin (trastuzumab) (see e.g., FIG. 43).

HER2-low patients = details: PMID 31821109; cited from earlier work

## trastuzumab [Herceptin]
[1]
  cell response in cell growth (MTT) assays: increased cell response
HER2-low patients
  effectiveness in HER2-low patients: ineffective

Source: US20240124610A1, “METHODS FOR TREATING HER2-NEGATIVE OR HER2-LOW CANCER” (Washington University, priority 2022, published 2024)
